One compound from patent US8389012B2, “Gellan-gum nanoparticles and methods of making and using the same” (The Corporation of Mercer University, priority 2008, dated 2013) can be followed below.

The assay concerns PC-3 tumors. Kind of assay: In vivo efficacy in athymic nude mice bearing human xenograft prostate cancer tumor. Conditions: single i.v. injection (40 mg/kg Ptx where drug), day 60; initial volume averaged 155 mm^3.

For `CC(=O)O[C@H]1C(=O)[C@@]2(C)[C@H]([C@H](OC(=O)c3ccccc3)[C@]3(O)C[C@H](OC(=O)[C@H](O)[C@@H](NC(=O)c4ccccc4)c4ccccc4)C(C)=C1C3(C)C)[C@]1(OC(C)=O)CO[C@@H]1C[C@@H]2O` [Ptx, Paclitaxel], the “mean tumor size at the end of the study” value turned out to be 166.2 mm^3.
